Article PMC9064305

Target: Recombinant human ADAMTS6-Ct (residues 558-1117) (human) (UniProt Q9UKP5)
Experiment: SPR; ADAMTS6-Ct amine-coupled to a CM5 chip (1700 RU), FBN2-Nt and FBN2-Ct as analytes; Biacore 3000, 25 °C, 10 mM Hepes pH 7.4, 0.15 M NaCl, 2 mM CaCl2, 0.005% or 0.05% P20, 30 μl/min; steady state affinity method

| Substance | Kd |
| --- | --- |
| Human fibrillin-2 recombinant N-terminal half (rFBN2-N) (from UniProt P35556 78-2779) (domain or fragment) | 43 nM |
| Human fibrillin-2 recombinant C-terminal half (rFBN2-C) (from UniProt P35556 78-2779) (domain or fragment) | 80 nM |
